The source of these data is patent US20090258079A1, “Biocompatible Block Copolymer, Use Thereof and Manufacturing Method Thereof” (priority 2005, published 2009).

The nature of series [1]: Dispersion and stability of drug micro-crystal composite (underwater kneading). The series is classed as physicochemical. The settings on record: 10 mg in mortar, kneaded with 1 ml of liquid. The text has this: To prepare a drug composite particle comprising the block copolymer of the present invention as a constituent component, for example, an underwater kneading method is employed. A drug composite can be manufactured by adding a drug to an aqueous solution of the block copolymer and kneading them together. A composite of a nano-order drug crystal and the block copolymer can be formed by carrying out kneading efficiently and the suspended state of the drug is kept stably.
It is understood from this that the block copolymer of the present invention can form a stable composite with drug micro-crystals.

Series [2] in a line: Solubilization of a drug by micelle formation with the block copolymer. The conditions noted are these: drug without block copolymer.

As for dexamethasone palmitate [DMP], the “dispersion of dexamethasone palmitate crystals on kneading” value in series [1] was “did not disperse”. In addition, the “solubility of the drug alone in water” value in series [2] is “insoluble in water”.
